Measurements from ChEMBL document CHEMBL5053518, “1,5,6,7-Tetrahydro-4H-indazol-4-ones as human neutrophil elastase (HNE) inhibitors” (Bioorg Med Chem Lett, 2021).

Target: T1, Neutrophil elastase (Homo sapiens, UniProt P08246)
T1 sequence (P08246 whole entry): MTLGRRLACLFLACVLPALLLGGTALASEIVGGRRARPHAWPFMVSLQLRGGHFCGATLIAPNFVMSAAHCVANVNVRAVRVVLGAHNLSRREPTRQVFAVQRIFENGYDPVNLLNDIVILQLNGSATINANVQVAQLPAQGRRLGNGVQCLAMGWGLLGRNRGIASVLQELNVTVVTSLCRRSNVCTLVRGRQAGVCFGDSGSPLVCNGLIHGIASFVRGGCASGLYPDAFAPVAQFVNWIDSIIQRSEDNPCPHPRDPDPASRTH
Test: Inhibition of human neutrophil elastase

Ki: 24 nM
SMILES: CC(C)(C)C(=O)Oc1ccc(S(=O)(=O)Nc2ccccc2C(=O)NCC(=O)O)cc1 [SIVELESTAT]
